Results as given in patent publication US7205002B2, “Method of making, and the use of cytotoxic agents containing elemental selenium” (MCW Research Foundation, Inc., priority 2002, dated 2007).

Tested on: L1210 leukemia cells
Test: Cytotoxic activity of conjugates formed by dye photoproducts and serum (lipo)proteins, in vitro clonal assay
Type: cell-based, murine
Method: Optimal dye:protein ratios for generation of fluorescent and cytotoxic conjugates: Bovine serum albumin was dissolved at a concentration of 1.75 mg/ml in 10 mM HEPES buffer pH 7.4. […] The mixtures were exposed to white light (27 W/m^2) for 60 min as deescribed above. To assess fluorescent conjugate formation, the photoirradiated mixtures were diluted 30 times with 10 mM HEPES buffer pH 7.4, and fluorescence emission spectra were recorded with a Hitachi F-4500 fluorescence spectrophotometer using an excitation wavelength of 490 nm. To assess cytotoxic activity, cytotoxic conjugates were made isotonic by the addition of an appropriate volume of double-concentrated alpha-medium and incubated with L1210 leukemia cells for 60 min at 37° C. The surviving fraction of in vitro clonogenic leukemia cells was determined by in vitro clonal assay as described in Sieber, F. et al., 1984, which is incorporated by reference in its entirety. [table] Optimal Dye-to-Protein Ratios: For the generation of fluorescent conjugates, the optimal ratio of dye-to-protein is 2:1. For cytotoxic conjugates, the optimal dye-to-protein ratio appears to be about 5:1 (FIG. 7). The fluorescence yield of fluorescent photoproduct-albumin conjugates was determined with a Hitachi F4500 fluorescence spectrophotometer. All samples were serially diluted with buffer to rule out artifacts due to self-quenching. […]

## Human serum albumin: carrier protein for conjugates with MC54-derived photoproducts
  Cytotoxic Activity: yes
